This data set relates to HeLa cells. As to the kind of experiment: Follow-up dose-dependent rescue of DNMDP cytotoxicity (competition with DNMDP). As to conditions: co-treatment with DNMDP, 48 h, up to 10 μM.

SMILES strings stand for the structures.

Results on one compound are retold here after US12053476B2, “Compounds, compositions and methods for cancer patient stratification and cancer treatment” (BAYER PHARMA AKTIENGESELLSCHAFT, priority 2016, dated 2024).

`OCCN(CCO)c1nc(N2CCCCC2)c2nc(N(CCO)CCO)nc(N3CCCCC3)c2n1` [dipyridamole]: the “rescue of DNMDP cytotoxicity / competition (in words)” value was “not effective competitors”.
